Viability change, negative = cytotoxic data for 21 molecules are collected here from PubChem BioAssay (Tox21).

Where “and” joins values, the source holds several entries; their conditions need not be identical. Equal entries are not always repeated. This is a selection; strong and weak results do not stand in their true shares. Results filed as inconclusive are left out. Calls of active or inactive are those of the source. Calls follow the shape of the dose curve; as a rule, active = well fitted cell-killing curve with a large enough effect in the repeat runs; inconclusive = weak or mixed curves, or effect the other way; inactive = no such curve, though single readings can be large or run the other way.
% is scaled to controls: 0 for no effect and ±100 for the full control effect.

The first test is described as follows: qHTS assay to identify small molecule antagonists of the glucocorticoid receptor (GR) signaling pathway - cell viability counter screen (AID 720693). Also: nearly all actives have a fitted effect of over 55% in size. The following applies: GR-bla HeLa viability, CellTiter-Glo luminescence, 18 h; at 27 µM (top of the series); with 5 nM dexamethasone present. From the text: National Center for Advancing Translational Sciences [NCATS]
NIH Chemical Genomics Center [NCGC]
U.S. Environmental Protection Agency [EPA]
National Institutes of Environmental Health Sciences [NIEHS]
National Toxicology Program [NTP]
U.S. Food and Drug Administration [FDA]
The Glucocorticoid receptor (GR) is one of the members of the nuclear receptor family of ligand-dependent transcription factors. GR plays a critical role in carbohydrate, protein and lipid metabolisms and programmed cell death. CellSensor GR-bla HeLa cell line (Invitrogen) contains a beta-lactamase reporter gene under the control of the glucocorticoid response element stably integrated into HeLa cells, a cervical cancer cell line that expresses glucocorticoid receptor. The activation of the reporter gene under culture conditions can be detected by fluorescence intensity. This cell line has been used to screen the Tox21 10K compound library and to identify the compounds that inhibit the GR signaling. The cytotoxicity of the Tox21 compound library against the GR-bla HeLa cell line was tested in parallel by measuring the cell viability using CellTiter-Glo assay in the same wells.
Tox21 Assay Protocol Summary:
The GR-bla HeLa cells were dispensed at 1500 cells/5 ul/well in 1536-well black wall/clear bottom plates using a Multidrop Combi (ThermoFisher Scientific, Waltham, MA) dispenser. After the assay plates were incubated at a 37 C/5% CO2 incubator for 4 hours, 23 nL of compounds dissolved in DMSO, positive controls or DMSO only was transferred to the assay plate by a pintool station (Kalypsys, San Diego, CA), followed by addition of 1 uL of dexamethasone (5 nM, final concentration in the well). The plates were incubated at 37 C for 18 hours. After 1 uL of LiveBLAzerTM B/G FRET substrate was added using a Flying Reagent Dispenser (Aurora Discovery, San Diego, CA), the plates were incubated at room temperature (RT) for 2 hours, and fluorescence intensity was measured by an Envision plate reader (PerkinElmer, Shelton, CT). After measurement of bla assay, 3 ul CellTiter-Glo (Promega, Madison, WI) was added to measure the cytotoxicity and the plates were then incubated at RT for 30 min. The luminescence was measured using a ViewLux (Perkin Elmer) plate reader.
Turning to `C/C1=C2N=C(/C=C3N=C(/C(C)=C4\[N-][C@@](C)([C@@H]5N=C1[C@](C)(CCC(=O)NC[C@@H](C)OP(=O)([O-])O[C@H]1[C@@H](O)[C@@H](n6cnc7cc(C)c(C)cc76)O[C@@H]1CO)[C@H]5CC(N)=O)[C@@](C)(CC(N)=O)[C@@H]4CCC(N)=O)[C@@](C)(CC(N)=O)[C@@H]\3CCC(N)=O)C(C)(C)[C@@H]/2CCC(N)=O.[C-]#N.[Co+3]`, the viability change, negative = cytotoxic is inactive: 1.65%.

Still in this test, the particulars now being: GR-bla HeLa viability, CellTiter-Glo luminescence, 18 h; at 58.5 µM (top of the series); with 5 nM dexamethasone present.
`CN(C)CCS`: the viability change, negative = cytotoxic was inactive: -7.13%.
As for `CCOP(=O)(CC)OCC`, the viability change, negative = cytotoxic is inactive: 16.5%.
On the same count and under the same terms, to `COP(C)(=O)OC` belongs inactive: 19.9%; to `OCCSCCO`, inactive: -9.39%; to `CC(C)OP(=O)(F)OC(C)C`, inactive: 10.9%.
Same read-out and setting: the result for `O=[N+]([O-])c1cccc([N+](=O)[O-])c1` reads inactive: 1.45%.
For `O=[N+]([O-])[O-].[NH4+]`, the viability change, negative = cytotoxic is inactive: -3.19% and inactive: -0.49% and inactive: 6.63%.
On the same count and under the same terms, to `CCOP(=O)(CC)Oc1ccc([N+](=O)[O-])cc1` (stereo not given) belongs inactive: -9.67%.
Same read-out and setting: the result for `CC(C)OP(C)(=O)OC(C)C` reads inactive: 0.866% and inactive: 7.43%; that for `Cc1ccc([N+](=O)[O-])cc1[N+](=O)[O-]`, inactive: -10.3% and inactive: 8.07%; that for `Cc1ccc([N+](=O)[O-])c([N+](=O)[O-])c1`, inactive: 14.9%.
Regarding `CC(C)N(CCO)C(C)C`, the viability change, negative = cytotoxic is inactive: -8.28%.
`COc1ccc([N+](=O)[O-])cc1[N+](=O)[O-]`: the viability change, negative = cytotoxic was inactive: -0.33%.
As to `O=[N+]([O-])OCC(CO[N+](=O)[O-])(CO[N+](=O)[O-])CO[N+](=O)[O-]`, the viability change, negative = cytotoxic was inactive: 4.61% and inactive: -1.53%.
For the molecule `CP(=O)(O)OCCC[Si](O)(O)O`, the viability change, negative = cytotoxic is inactive: -4.37%.
The same measure, in the same setting: the result for `CC(C)N(CCCl)C(C)C` reads inactive: 7.34%; that for `Cc1c([N+](=O)[O-])cccc1[N+](=O)[O-]`, inactive: 0.291% and inactive: 8.94%.

Still in this test, the particulars now being: GR-bla HeLa viability, CellTiter-Glo luminescence, 18 h; at 78.9 µM (top of the series); with 5 nM dexamethasone present.
On to `COP(C)(=O)OC`, for which the viability change, negative = cytotoxic was inactive: -0.201%.
On the same count and under the same terms, the result for `N=C(N)N[N+](=O)[O-]` reads inactive: -11.7%; that for `OCCSCCO`, inactive: 13.3%; that for `O=[N+]([O-])c1cccc([N+](=O)[O-])c1`, inactive: -13%.
Still for that read-out and setting: to `Nc1cc([N+](=O)[O-])cc([N+](=O)[O-])c1O` belongs inactive: -11.2%; to `CCN(CC)CCCl`, inactive: -3.22%; to `Cc1ccc([N+](=O)[O-])c([N+](=O)[O-])c1`, inactive: 3.34%.
